Laboratory results as given in US20130210888.

Test system: diMeK4H3 (1-21 aa) synthetic histone H3 peptide (UP12-460)

In the case of “histidine epitope-tagged LSD1 (HIS-LSD1), full length (1-851aa) human LSD1”, the “apparent Km (demethylation-FDH coupled spectrophotometric assay, Lineweaver-Burk)” value is reported as “approximately 30 µM”.
